We go through one compound from ChEMBL document CHEMBL3779880, “In silico to in vitro screening of hydroxypyridinones as acetylcholinesterase inhibitors” (Bioorg Med Chem Lett, 2016).

For the test, the target named is Acetylcholinesterase (Electrophorus electricus, UniProt O42275). Kind of test: Inhibition of electric eel AChE preincubated for 5 mins followed by addition of acetylthiocholine iodide measured after 2 mins by Ellman's method. (In general: DTNB colorimetry detects thiols as they appear.)

pIC50: −log10 of the molar value.

By pIC50 is commonly meant the negative decadic logarithm of the IC50, by convention in mol/L. A low value points to a high IC50. With `Cc1c(OC(=O)N(C)C)c(=O)ccn1-c1ccccc1`, the pIC50 was 4.31.
